# Laboratory results taken from PubChem BioAssay AID2796 (The Scripps Research Institute Molecular Screening Center, 2010).
# The chains behind the UniProt entries cited, without tags or fusion partners.
# UniProt P35869, whole entry: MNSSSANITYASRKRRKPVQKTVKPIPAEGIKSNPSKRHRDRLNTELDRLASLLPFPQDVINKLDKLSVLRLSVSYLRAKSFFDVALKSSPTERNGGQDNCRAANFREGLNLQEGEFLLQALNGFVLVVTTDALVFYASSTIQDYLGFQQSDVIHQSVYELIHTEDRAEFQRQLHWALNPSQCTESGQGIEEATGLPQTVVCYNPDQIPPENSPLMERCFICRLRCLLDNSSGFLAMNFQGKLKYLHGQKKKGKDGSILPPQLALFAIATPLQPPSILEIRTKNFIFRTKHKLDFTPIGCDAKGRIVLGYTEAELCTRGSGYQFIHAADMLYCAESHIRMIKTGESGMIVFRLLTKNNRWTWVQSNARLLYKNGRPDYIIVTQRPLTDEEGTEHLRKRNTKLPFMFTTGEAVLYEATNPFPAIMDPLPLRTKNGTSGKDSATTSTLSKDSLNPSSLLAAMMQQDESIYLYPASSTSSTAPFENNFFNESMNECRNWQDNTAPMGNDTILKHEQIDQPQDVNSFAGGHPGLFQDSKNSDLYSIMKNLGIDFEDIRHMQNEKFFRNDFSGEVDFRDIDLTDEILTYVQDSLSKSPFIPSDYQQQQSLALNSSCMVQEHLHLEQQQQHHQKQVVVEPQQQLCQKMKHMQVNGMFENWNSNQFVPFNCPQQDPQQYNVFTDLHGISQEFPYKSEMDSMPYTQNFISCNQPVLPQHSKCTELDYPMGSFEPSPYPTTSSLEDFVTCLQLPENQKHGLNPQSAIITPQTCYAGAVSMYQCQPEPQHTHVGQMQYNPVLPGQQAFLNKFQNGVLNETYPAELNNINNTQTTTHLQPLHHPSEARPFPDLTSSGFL
# The list shows a part of the results, in another mix than the full data. Activity calls are given as the source filed them. Rule as the data show it: active = activation above about 47%; inactive = the rest.
# Biological target: Aryl hydrocarbon receptor (Homo sapiens) (UniProt P35869)
# Test: AHR activators, primary screen, cell-based, luminescence, luciferase reporter, human (AID 2796);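 also: 0% = vehicle wells and 100% = reference agonist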
# Settings: AHR-responsive luciferase reporter cells, at 5 µM, hits give high values
row,SMILES,activation
1,Fc1ccccc1NC1CCN(Cc2ccccc2)CC1,inactive: 2.12%
2,Cc1ccc(C(=O)NCC2(N3CCCCC3)CCCCC2)o1,inactive: -0.5%
3,COc1cc(OC)cc(C(=O)NCC2(N3CCCCC3)CCCCC2)c1,inactive: 9.34%
4,CN(C)c1ccc(C(=O)NCC2(N3CCCCC3)CCCCC2)cc1,inactive: 3.53%
5,O=C(NCC1(N2CCCCC2)CCCCC1)c1ccco1,inactive: -1.72%
6,CCN1CCC(Nc2cccc(F)c2)CC1,inactive: -3.41%
7,O=C(O)C1(Nc2ccccc2)CCN(Cc2ccccc2)CC1,inactive: 0.69%
8,CC(C)(C)OC(=O)N1CCC(Nc2ccccc2)CC1,inactive: 0.33%
9,CCCOc1ccc(C(=O)NCC2(N(C)C)CCCCC2)cc1,inactive: 1.54%
10,CN1CCC(Nc2ccc(F)c(Cl)c2)CC1,inactive: -1.83%
11,CCOc1ncccc1C(=O)NCC1(N2CCOCC2)CCCCC1,inactive: 0.26%
12,CN1CCC(Nc2ccc(Cl)cc2)CC1,inactive: 0.73%
13,CCCOc1ccc(C)cc1CN(CCCl)CCCl,inactive: 0.14%
14,COc1cc(OC)cc(C(=O)NCC2(N3CCOCC3)CCCCC2)c1,inactive: 5.7%
15,COc1cccc(C(=O)N(c2cc(C)cc(C)c2)C2CCN(C(=O)OC(C)(C)C)CC2)c1,inactive: 1.23%
16,CCC(CO)(C(=O)OC1CN2CCC1CC2)c1ccccc1 (stereo not given),inactive: -0.3%
17,COc1ccc(C(=O)NCC2(N3CCOCC3)CCCCC2)cc1OC,inactive: 5.12%
18,COc1cc(C(=O)NCC2(N3CCOCC3)CCCCC2)cc(OC)c1C,inactive: 5.07%
19,O=C(NCC1(N2CCOCC2)CCCCC1)c1cc(Br)ccc1Cl,inactive: -0.68%
20,O=C(OC1CN2CCC1CC2)C1c2ccccc2C=Cc2ccccc21 (stereo not given),inactive: 0.82%
21,CCc1cc(C(=O)NCC2(N3CCCCC3)CCCCC2)sc1C,inactive: 3.43%
22,CCOC(=O)N1CCC(Nc2ccc(C)cc2)CC1,inactive: -1.46%
23,N/C(=N\O)c1c(N)no[n+]1[O-],inactive: 8.15%
24,N#Cc1ccc(C(=O)NCC2(N3CCCCC3)CCCCC2)cc1,inactive: -0.76%
25,CC(C)(C)OC(=O)N1CCC(N(C(=O)c2ccccc2)c2ccc(Cl)cc2)CC1,inactive: 1.08%
26,CN(C)C1(CNC(=O)c2cccc(C#N)c2)CCCCC1,inactive: 0.19%
27,CCCN1CCC(Nc2cc(OC)cc(OC)c2)CC1,inactive: 3.1%
28,c1ccc(CN2CCC(Nc3ccccc3)CC2)cc1,inactive: 1.22%
29,N#CC1(Nc2ccccc2)CCN(CCc2ccccc2)CC1,inactive: 0.07%
30,CCN1CCC(Nc2ccc(Cl)cc2)CC1,inactive: -0.78%
